Experimental data published in US11472838B2, “Inhibitors of blood coagulation factor XIII” (Zedira GmbH, priority 2018, dated 2022).

Amino acid sequences for entries named in this document (tags omitted).
UniProt P21980, whole entry: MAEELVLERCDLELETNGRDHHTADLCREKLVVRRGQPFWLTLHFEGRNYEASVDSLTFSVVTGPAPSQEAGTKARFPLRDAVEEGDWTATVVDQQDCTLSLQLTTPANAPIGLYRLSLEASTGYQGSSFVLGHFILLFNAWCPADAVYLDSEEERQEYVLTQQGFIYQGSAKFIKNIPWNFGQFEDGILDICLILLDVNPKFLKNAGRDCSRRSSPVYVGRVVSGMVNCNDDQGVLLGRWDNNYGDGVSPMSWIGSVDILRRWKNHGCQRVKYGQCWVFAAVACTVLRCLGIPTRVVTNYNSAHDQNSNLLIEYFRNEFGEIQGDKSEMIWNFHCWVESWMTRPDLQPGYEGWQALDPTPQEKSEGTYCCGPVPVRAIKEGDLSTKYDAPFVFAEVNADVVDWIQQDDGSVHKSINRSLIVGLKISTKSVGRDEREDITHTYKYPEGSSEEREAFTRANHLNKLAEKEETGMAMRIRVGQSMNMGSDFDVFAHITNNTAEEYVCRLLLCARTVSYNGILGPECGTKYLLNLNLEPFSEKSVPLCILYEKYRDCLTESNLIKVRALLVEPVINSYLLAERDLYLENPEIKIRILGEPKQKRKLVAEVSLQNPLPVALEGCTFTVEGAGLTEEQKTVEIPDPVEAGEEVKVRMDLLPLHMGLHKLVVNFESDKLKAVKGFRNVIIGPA

Tests used:
TG2 = TG2 (Homo sapiens (Human), UniProt P21980); assay: Inhibitory activity against TG2 (isopeptidase assay), Tables 3 and 4; assay type: biochemical; conditions: TG2 versus FXIII, Table 4
[1] = Stability of compounds in plasma (HPLC); conditions: 37° C., over a period of 2 hours

Structure (SMILES)	Selectivity (TG2)	recovery in plasma determined by HPLC [1] [%]
C=C1C[C@@H](C(=O)N[C@@H](CC(C)C)C(=O)N[C@H](C(N)=O)C2CCCCC2)N(C(=O)[C@@H](NC(=O)[C@H](CC/C=C/C(=O)OCC)NC(=O)c2ccc([N+](=O)[O-])cc2C(=O)O)C(C)(C)C)C1 [Compound 42a]	9.5 and 12.1	
COC(=O)/C=C/CC[C@H](NC(=O)c1cc([N+](=O)[O-])ccc1C(=O)O)C(=O)N[C@H](C(=O)N1C[C@H](F)C[C@H]1C(=O)N[C@H](C(=O)N[C@H](C(N)=O)C1CCCCC1)C1CCCCC1)C(C)(C)C		> 75
COC(=O)/C=C/CC[C@H](NC(=O)c1cc([N+](=O)[O-])ccc1C(=O)O)C(=O)N[C@H](C(=O)N1C[C@H](O)C[C@H]1C(=O)N[C@H](C(=O)N[C@H](C(N)=O)C1CCCCC1)C1CCCCC1)C(C)(C)C		> 75
COC(=O)/C=C/CC[C@H](NC(=O)c1cc([N+](=O)[O-])ccc1C(=O)O)C(=O)N[C@H](C(=O)N1C2CCCCC2C[C@H]1C(=O)NC(C(=O)N[C@H](C(N)=O)C1CCCCC1)C1CCCCC1)C(C)(C)C (stereo partly shown)		> 75
COC(=O)/C=C/CC[C@H](NC(=O)c1cc([N+](=O)[O-])ccc1C(=O)O)C(=O)N[C@H](C(=O)N1C[C@H](OCc2ccccc2)C[C@H]1C(=O)N[C@H](C(=O)N[C@H](C(N)=O)C1CCCCC1)C1CCCCC1)C(C)(C)C		> 75
COC(=O)/C=C/CC[C@H](NC(=O)c1cc([N+](=O)[O-])ccc1C(=O)O)C(=O)N[C@H](C(=O)N1CC(F)(F)C[C@H]1C(=O)N[C@H](C(=O)N[C@H](C(N)=O)C1CCCCC1)C1CCCCC1)C(C)(C)C		> 75
COC(=O)/C=C/CC[C@H](NC(=O)c1cc([N+](=O)[O-])ccc1C(=O)O)C(=O)N[C@H](C(=O)N1CC=C[C@H]1C(=O)NC(C(=O)N[C@H](C(N)=O)C1CCCCC1)C1CCCCC1)C(C)(C)C (stereo partly shown)		> 75
COC(=O)/C=C/CC[C@H](NC(=O)c1cc([N+](=O)[O-])ccc1C(=O)O)C(=O)N[C@H](C(=O)N1CCCC[C@H]1C(=O)N[C@H](C(=O)N[C@H](C(N)=O)C1CCCCC1)C1CCCCC1)C(C)(C)C		> 75
COC(=O)/C=C/CC[C@H](NC(=O)c1cc([N+](=O)[O-])ccc1C(=O)O)C(=O)N[C@H](C(=O)N1C[C@H](Oc2ccccc2)C[C@H]1C(=O)N[C@H](C(=O)N[C@H](C(N)=O)C1CCCCC1)C1CCCCC1)C(C)(C)C		> 75
COC(=O)/C=C/CC[C@H](NC(=O)c1cc([N+](=O)[O-])ccc1C(=O)O)C(=O)N[C@@H](CC1CC1)C(=O)N1CC(=O)C[C@H]1C(=O)N[C@H](C(=O)N[C@H](C(N)=O)C1CCCCC1)C1CCCCC1		> 75
CCOC(=O)/C=C/CC[C@H](NC(=O)c1cc([N+](=O)[O-])ccc1C(=O)O)C(=O)N[C@H](C(=O)N1CC(=O)C[C@H]1C(=O)N[C@H](C(=O)N[C@H](C(N)=O)C1CCCCC1)C1CCCCC1)C(C)(C)C		> 75
COC(=O)/C=C/CC[C@H](NC(=O)c1cc([N+](=O)[O-])ccc1C(=O)O)C(=O)N[C@H](C(=O)N1C[C@@H](F)C[C@H]1C(=O)N[C@H](C(=O)N[C@H](C(N)=O)C1CCCCC1)C1CCCCC1)C(C)(C)C		> 75
COC(=O)/C=C/CC[C@H](NC(=O)c1cc([N+](=O)[O-])ccc1C(=O)O)C(=O)N[C@H](C(=O)N1CCC[C@@H](C(=O)N[C@H](C(=O)N[C@H](C(N)=O)C2CCCCC2)C2CCCCC2)C1)C(C)(C)C		> 75
COC(=O)/C=C/CC[C@H](NC(=O)c1cc([N+](=O)[O-])ccc1C(=O)O)C(=O)N[C@H](C(=O)N1CC[C@H]1C(=O)N[C@H](C(=O)N[C@H](C(N)=O)C1CCCCC1)C1CCCCC1)C(C)(C)C		> 75
COC(=O)/C=C/CC[C@H](NC(=O)c1cc([N+](=O)[O-])ccc1C(=O)O)C(=O)N[C@H](C(=O)N1COC[C@H]1C(=O)N[C@H](C(=O)N[C@H](C(N)=O)C1CCCCC1)C1CCCCC1)C(C)(C)C		> 75
COC(=O)/C=C/CC[C@H](NC(=O)c1cc([N+](=O)[O-])ccc1C(=O)O)C(=O)N[C@H](C(=O)N1CC(=O)C[C@H]1C(=O)N[C@H](C(=O)N[C@H](C(N)=O)C1CCCCC1)C1CCCCC1)C(C)(C)C		> 75
COC(=O)/C=C/CC[C@H](NC(=O)c1cc([N+](=O)[O-])ccc1C(=O)O)C(=O)N[C@H](C(=O)N1C[C@@H](Oc2ccccc2)C[C@H]1C(=O)N[C@H](C(=O)N[C@H](C(N)=O)C1CCCCC1)C1CCCCC1)C(C)(C)C		> 75
COC(=O)/C=C/CC[C@H](NC(=O)c1cc([N+](=O)[O-])ccc1C(=O)O)C(=O)N[C@H](C(=O)N1C[C@H]2[C@@H]([C@H]1C(=O)N[C@H](C(=O)N[C@H](C(N)=O)C1CCCCC1)C1CCCCC1)C2(C)C)C(C)(C)C		> 75
C=C1C[C@@H](C(=O)N[C@H](C(=O)N[C@H](C(N)=O)C2CCCCC2)C2CCCCC2)N(C(=O)[C@@H](NC(=O)[C@H](CC/C=C/C(=O)OC)NC(=O)c2cc([N+](=O)[O-])ccc2C(=O)O)C(C)(C)C)C1		> 75

Where “and” joins values, the source holds several entries; their conditions need not be identical. Identical values can stand only once.
